Assay results as given in patent US3991199A, “Pyridoindoles” (Endo Laboratories, Inc., priority 1974, dated 1976).

Assays:
locomotor activity = experiment: Decreased Locomotor Activity (LMA), sedative; format: in vivo; settings: po
[1] = system: conditioned avoidance response; experiment: Rat Conditioned Avoidance Response (CAR), major tranquilizer; format: in vivo; settings: for CAR rat ED50: po; for major tranquilizing (antipsychotic) activity: in words
[2] = system: conflict (approach-avoidance); experiment: Rat Conflict (Approach-Avoidance) Test (Conf), minor tranquilizer; format: in vivo; settings: po
blood pressure = experiment: Hypotensive (Hypo): blood pressure in conscious rats; format: in vivo, rat; settings: oral dose
[3] = system: pressor response to epinephrine and/or nor-epinephrine; experiment: Adrenergic Blockage (AB); format: in vivo; settings: intravenous

Structure (SMILES)	LMA mouse MED (locomotor activity)	also measured
Brc1ccc(N2c3ccc(Br)cc3[C@@H]3CNCC[C@H]32)cc1.Cl (racemic)	10 mg/kg	
c1ccc(N2c3ccccc3[C@@H]3CNCC[C@H]32)cc1 (single isomer, unassigned)	30 mg/kg	CAR rat ED50 [1]: > 100 mg/kg
CCN1CC[C@@H]2[C@@H](C1)c1ccccc1N2c1ccccc1.Cl (racemic)	1 mg/kg	major tranquilizing (antipsychotic) activity [1]: major tranquilizer (antipsychotic) activity; CAR rat ED50 [1]: 6 mg/kg
c1ccc(N2c3ccccc3[C@@H]3CN(C4CCCC4)CC[C@H]32)cc1 (relative stereo)	10 mg/kg	
CC(C)CN1CC[C@@H]2[C@@H](C1)c1ccccc1N2c1ccccc1 (racemic)	10 mg/kg	
CN1CC[C@@H]2[C@@H](C1)c1ccccc1N2c1ccccc1.Cl	10 mg/kg	CAR rat ED50 [1]: 5 mg/kg; Conf rat MED [2]: I; Hypo rat MED (blood pressure): 30; AB dog MED [3]: 0.01
CN1CC[C@@H]2[C@@H](C1)c1cc(Br)ccc1N2c1ccc(Br)cc1.Cl (racemic)	3 mg/kg	major tranquilizing (antipsychotic) activity [1]: major tranquilizer (antipsychotic) activity; CAR rat ED50 [1]: 4 mg/kg; AB dog MED [3]: 0.1
c1ccc(N2c3ccccc3[C@@H]3CN(CC4CC4)CC[C@H]32)cc1 (relative stereo)	3 mg/kg	
C#CCN1CC[C@@H]2[C@@H](C1)c1ccccc1N2c1ccccc1 (relative stereo)	30 mg/kg	
c1ccc(N2c3ccccc3[C@@H]3CN(C4CC4)CC[C@H]32)cc1 (relative stereo)	10 mg/kg	
CN1CC[C@@H]2[C@@H](C1)c1ccccc1N2c1cccc(C(F)(F)F)c1 (relative stereo)	100 mg/kg	
CC(C)(C)CN1CC[C@@H]2[C@@H](C1)c1ccccc1N2c1ccccc1.Cl (racemic)	30 mg/kg	
CC(C)N1CC[C@@H]2[C@@H](C1)c1ccccc1N2c1ccccc1.Cl (racemic)	14 mg/kg	
C=CCN1CC[C@@H]2[C@@H](C1)c1ccccc1N2c1ccccc1 (racemic)	10 mg/kg	
c1ccc(N2c3ccccc3[C@@H]3CN(CC4CCC4)CC[C@H]32)cc1 [compound of Example 2, (+)-trans-2-(cyclobutylmethyl)-2,3,4,4a,5,9b-hexahydro-5-phenyl-1H-pyrido[4,3-b]indole]		AB dog MED [3]: 0.10
